The other results are listed elsewhere or left out.
What follows are compounds tested on A. baumannii ATCC 17978 (assay: relative growth (fraction of control); higher = less inhibition). Details: 50 µM.

| SMILES | relative growth |
| --- | --- |
| O=C1O[C@H](c2ccccc2)[C@H](c2ccccc2)N2[C@H]1[C@@H](C(=O)O)[C@]1(C(=O)Nc3ccc(C#CC4=CCCCC4)cc31)[C@H]2c1ccc(O)cc1 | 1.24 |
| O=C(O)C1(c2cccs2)CCCC1 | 0.873 |
| O=C(CCCCC(=O)N/N=C/[C@H](O)[C@@H](O)[C@@H](O)[C@H](O)CO)NO | 0.743 |
| CS(=O)(=O)SCCN | 0.862 |
| C[C@@H](O)C#Cc1ccc2c(c1)O[C@H](CN(C)C)[C@@H](C)CN([C@@H](C)CO)S2(=O)=O | 0.897 |
| COc1ccc(C2CNC(=O)C2)cc1OC1CCCC1 (configuration not stated) | 1.01 |
| O=c1c(O)c(-c2ccc(O)cc2O)oc2cc(O)cc(O)c12 | 0.992 |
| COc1nsnc1N1CCOCC1 | 1.17 |
| CN1CCN(C(=O)C[C@@H]2CC[C@H]3[C@@H](COC[C@H](O)CN3C(=O)C3CC3)O2)CC1 | 0.961 |
| COCC#Cc1ccc2c(c1)O[C@H](CN(C)C(=O)Nc1ccccc1F)[C@@H](C)CN([C@@H](C)CO)S2(=O)=O | 0.977 |
| CCc1ccc(NC(=O)C2CCN(S(=O)(=O)c3c(C)[nH]c(=O)[nH]c3=O)CC2)cc1 | 1.12 |
| CN(C)CCCN1c2ccccc2Sc2ccc(C(F)(F)F)cc21.Cl | 0.167 |
| C[C@@H]1CNC(=O)CO1 | 1.18 |
| Cn1c(=O)cc(N2CCCC(N)C2)n(Cc2ccccc2C#N)c1=O.O=C(O)c1ccccc1 (configuration not stated) | 1.32 |
| O=C(O)[C@@H](O)Cc1ccc(O)c(O)c1 | 0.843 |
| O=C(NO)c1cccc(C(=O)N/N=C/[C@H](O)[C@H](O)[C@@H](O)[C@@H](O)CO)c1 | 1.12 |
| CC(C)NC(=O)N[C@H]1C=C[C@H](CC(=O)NCCN2CCCC2)O[C@@H]1CO | 0.941 |
| C#C[C@]1(O)CCC2C3CCc4cc(OC)ccc4C3CC[C@@]21C (some centres not stated) | 1.21 |
| COCCNC(=O)C[C@@H]1C[C@H]2c3cc(NS(C)(=O)=O)ccc3O[C@H]2[C@H](CO)O1 | 1.03 |
| Cl.OC(c1cc(C(F)(F)F)nc2c(C(F)(F)F)cccc12)C1CCCCN1 (configuration not stated) | 0.156 |
| Cc1ccccc1C(OCCN(C)C)c1ccccc1.O=C(O)CC(O)(CC(=O)O)C(=O)O (configuration not stated) | 0.926 |
| Cc1cc(SC(=O)N/C=C/c2ccco2)c(C)cc1Cl | 1.19 |
| COc1cc(-c2coc3cc(O[C@@H]4O[C@H](CO)[C@@H](O)[C@H](O)[C@H]4O)c(OC)c(O)c3c2=O)cc(O)c1OC | 1.18 |

| SMILES | relative growth |
| --- | --- |
| O=C(C[C@@H]1CC=CCC[C@@H](Cc2ccc(F)cc2)C(=O)OC[C@@H](Cc2c[nH]c3ccccc23)NC1=O)N[C@@H](CO)Cc1ccccc1 | 0.943 |
| Cc1c(O)c(=O)ccn1C | 0.822 |
| NC(=O)N1C(=O)[C@H]2[C@H](C1=O)[C@H]1C=C(CCCO)[C@@H]2[C@H](c2ccc(CN3CCCC3)cc2)N1Cc1sc2ccccc2c1Cl | 1.05 |
| C[C@@H]1CN([C@@H](C)CO)S(=O)(=O)c2ccc(C#Cc3cccc(F)c3)cc2O[C@H]1CN(C)S(=O)(=O)c1ccccc1F | 1.15 |
| COc1cccc(NC(=O)N2C[C@H](O)COC[C@@H]3O[C@@H](CC(=O)NCc4ccccc4F)CC[C@H]32)c1 | 0.87 |
| O=S(=O)(O)c1cc(O)ccc1O | 1.02 |
| Cn1c(N)c(S(=O)(=O)N2CCCC[C@@H]2c2cccnc2)c(=O)n(C)c1=O | 1.02 |
| CC(=O)O[C@]1(C(C)=O)CCC2C3C[C@H](C)C4=CC(=O)CC[C@]4(C)C3CC[C@@]21C (some centres not stated) | 1.07 |
| O=S(=O)(c1ccccc1)N1CCN(CCO)CC1 | 1.03 |
| COc1ccc(CNC(=O)C[C@@H]2C[C@H]3c4cc(NS(=O)(=O)c5ccc(F)cc5)ccc4O[C@H]3[C@@H](CO)O2)cc1 | 0.919 |
| CCC(=O)O[C@]1(C(=O)CCl)[C@@H](C)C[C@H]2[C@@H]3CCC4=CC(=O)C=C[C@]4(C)[C@@]3(F)[C@@H](O)C[C@@]21C | 0.942 |
| NS(=O)(=O)c1ccc(NC(=O)[C@H]2CCCNC2=O)cc1 | 0.952 |
| O=C1C[C@@H](c2ccc(O)cc2)Oc2cc(O)cc(O)c21 | 0.986 |
| Nc1ccc(C(=O)[O-])c(O)c1.[Na+] | 0.926 |
| COC(=O)C1CCN(S(=O)(=O)c2c(C)n(C)c(=O)n(C)c2=O)CC1 | 1.11 |
| CCc1ccc(Nc2c3c(nc4ccccc24)CCC3)cc1 | 0.135 |
| CSC1=N[C@@]2(C)CCCC[C@@H]2c2c1ccc1ccccc21 | 0.931 |
| C/C1=C/[C@@]23O[C@@]2(C[C@H](C)[C@H]3O[C@H]2O[C@@H](CO)[C@@H](O)[C@@H](O)[C@@H]2O)C(=O)[C@H](C)[C@H](O)[C@@H]2C([C@H](O)[C@@H]1O)C2(C)C (some centres not stated) | 1.13 |
| Cc1cc(-c2ccccc2)nnc1NCCN1CCOCC1.Cl.Cl | 1.15 |
| O=C(NCCn1ncc2c(=O)n(Cc3ccccc3)cnc21)c1ccc(S(=O)(=O)N2CCOCC2)cc1 | 1.08 |
| NNC(=O)c1cccc(C(F)(F)F)n1 | 1.03 |
| COc1cccc(S(=O)(=O)Nc2ccc3c(c2)OC[C@@H](C)N(C(=O)Cc2cccnc2)C[C@@H](C)[C@@H](OC)CN(C)C3=O)c1 | 1 |
| CN(C)CC(=O)N[C@@H]1CC[C@H](CCNC(=O)C2CCC2)O[C@@H]1CO | 1.13 |

| SMILES | relative growth |
| --- | --- |
| NC(=O)c1ccc([N+](=O)[O-])cc1Cl | 1.05 |
| O=C(N[C@H]1C=C[C@@H](CC(=O)N2CCOCC2)O[C@H]1CO)c1ccccn1 | 1.11 |
| O=C1OCCN1/N=C/c1ccc([N+](=O)[O-])o1 | 0.322 |
| C=CCOC(=O)[C@@H]1[C@H]2C(=O)O[C@H](c3ccccc3)[C@H](c3ccccc3)N2[C@H](c2ccc(OCCOC(=O)[C@H]3C[C@H]4C(=O)N[C@@H](Cc5ccccc5)C(=O)N4[C@H]3c3ccc(O)cc3)cc2)[C@@]12C(=O)Nc1ccc(I)cc12 | 1.57 |
| O=C(Nc1ccc(Oc2ccc(Cl)cc2)c(Cl)c1)c1cc(I)cc(I)c1O | 1.41 |
| C[C@H]1CN([C@@H](C)CO)C(=O)Cc2cc(NC(=O)Nc3ccc(C#N)cc3)ccc2O[C@H]1CN(C)S(=O)(=O)c1ccc(Oc2ccccc2)cc1 | 0.858 |
| CCCN1C[C@H](C)[C@@H](OC)CN(C)C(=O)c2ccc(NS(=O)(=O)c3cn(C)cn3)cc2OC[C@H]1C | 1.02 |
| O=c1[nH]c(=O)n(Cc2ccccc2)c2nc[nH]c12 | 0.891 |
| CS(=O)(=O)Nc1ccccc1O | 0.953 |
| CN(C)CCCNC(=O)C[C@H]1C=C[C@H](NS(=O)(=O)c2ccccc2)[C@@H](CO)O1 | 1.02 |
| CC(C)(C)NC(=O)[C@H]1CCC2C3CCC4NC(=O)C=C[C@]4(C)C3CC[C@@]21C (some centres not stated) | 1.01 |
| COc1ccc(CCNC(=O)[C@@]2(Cc3ccccc3I)c3ccccc3C(=O)N(Cc3ccccc3OC)[C@H]2c2ccc(CO)cc2)cc1 | 1.11 |
| COCC(=O)N[C@H]1C=C[C@H](CC(=O)N2CCCCC2)O[C@H]1CO | 1.06 |
| O=C(C[C@@H]1C[C@@H]2c3cc(NC(=O)c4ccc5c(c4)OCO5)ccc3O[C@@H]2[C@@H](CO)O1)NCc1ccccn1 | 1.12 |
| O=C(CSc1nnc[nH]1)C1CC1 | 0.921 |
| N[C@H](C(=O)O)[C@H](O)c1ccc(O)c(O)c1 | 0.891 |
| Cc1ccc(O)cc1 | 0.936 |
| CN(C)c1nc(N(C)C)nc(N(C)C)n1 | 0.947 |
| C=C(O)C(=O)O | 0.977 |
| NC(=O)NC(=O)C[n+]1ccc(/C=N/O)cc1 | 0.926 |
| C[C@@H]1CN([C@H](C)CO)S(=O)(=O)c2ccc(C3=CCCC3)cc2O[C@H]1CN(C)C(=O)C1CCOCC1 | 1.12 |
| C[C@H](NC(=O)C[C@@H]1CC[C@H](NC(=O)CN2CCOCC2)[C@@H](CO)O1)c1ccccc1 | 0.973 |
| Cc1ccc2nc(-c3ccc(NC(=O)C4CCC4)cc3)sc2c1 | 1.04 |

| SMILES | relative growth |
| --- | --- |
| COc1ccc(Cn2cc[nH]c(=O)c2=O)cc1 | 1.05 |
| CC[N+](CC)(CC)CCOc1cccc(OCC[N+](CC)(CC)CC)c1OCC[N+](CC)(CC)CC.[I-].[I-].[I-] | 0.991 |
| N=C(C[n+]1ccccc1)NO | 0.906 |
| O=C(O)c1cc(-c2ccccc2)nc2ccccc12 | 0.916 |
| Cc1cccc(S(=O)(=O)N2C[C@@H](O)COC[C@H]3O[C@@H](CC(=O)NCCCN4CCOCC4)CC[C@@H]32)c1 | 1.01 |
| Oc1cc(C2CCCCC2)cc(C2CCCCC2)c1 | 1.06 |
| NCC(=O)NCC(=O)O | 1.05 |
| CCOC(=O)[C@H]1CC(C)=NNC1=O | 0.977 |
| O=C(NCC(=O)N1CCOCC1)c1ccccc1 | 1.17 |
| CCNC(=O)C[C@H]1CC[C@@H](NC(=O)C2CC2)[C@H](CO)O1 | 0.947 |
| Cc1ccc(S(=O)(=O)N2C[C@@H](O)COC[C@@H]3O[C@H](CC(=O)NCc4ccc(Cl)c(Cl)c4)CC[C@H]32)cc1 | 0.877 |
| COc1ccc2c(c1)[n+]([O-])c1c([n+]2[O-])CCC1 | 0.943 |
| O=C(O)c1cc(O)[nH]c(=O)c1 | 0.911 |
| O=C(CCCCCC(=O)N/N=C/[C@H](O)[C@@H](O)[C@H](O)[C@H](O)CO)NO | 0.965 |
| C=CCNC(=O)[C@H]1CCCN(S(C)(=O)=O)C1 | 0.923 |
| CC(C)CN1C(=O)[C@@]2(Cc3ccccc31)c1ccccc1C(=O)N(Cc1ccccc1)[C@H]2c1ccc(CO)cc1 | 0.956 |
| CN(C)S(=O)(=O)Nc1cccc(N)c1 | 0.647 |
| CC/C(=C(\c1ccccc1)c1ccc(OCCN(C)C)cc1)c1ccccc1.O=C(O)CC(O)(CC(=O)O)C(=O)O | 0.641 |
| C[C@@H](N)CCc1ccc(Br)cc1 | 0.953 |
| COc1ccc(CCNC(=O)[C@@]2(Sc3ccc(C)cc3)CC(=O)N(C(C)C)[C@@H]2c2ccc(CO)cc2)cc1 | 1.14 |
| Cc1csc2sc(/C=N/Cc3cccs3)c(C)c12 | 0.99 |
| CC(C)CC#Cc1ccc2c(c1)O[C@H](CN(C)C(=O)c1cnccn1)[C@H](C)CN([C@H](C)CO)S2(=O)=O | 0.996 |
| Cn1cnc(S(=O)(=O)N[C@@H]2CC[C@H](CC(=O)NCC3CC3)O[C@@H]2CO)c1 | 0.982 |
